The conditions of the data set: Citrus sinensis.
With `C=CCSSCC=C` [Diallyl disulfide], the “Migration Rate” value amounted to 3.0 cm/h and the “detection in the 18-20 cm or the 28-30 cm sections of the stem by GC/MS” value is “not in the 18-20 cm or the 28-30 cm sections”.
For the molecule `O=CC=Cc1ccccc1` [Cinnamaldehyde], the “Migration Rate” value turned out to be 1.50 cm/h.
As to `C=CCSSSCC=C` [Diallyl Trisulfide], the “Migration Rate” value was 3.25 cm/h and the “detection in the 18-20 cm or the 28-30 cm sections of the stem by GC/MS” value is given as “not in the 18-20 cm or the 28-30 cm sections”.
As to `Cc1nnc(C)s1` [2,5-Dimethyl-1,3,4-thiadiazole], the “Migration Rate” value turned out to be 1.75 cm/h.

The values are drawn from patent US12414569B2 (priority 2019, dated 2025).
